Our source for the IC50 values is ChEMBL document CHEMBL2346500, “Design and synthesis of dual-action inhibitors targeting histone deacetylases and 3-hydroxy-3-methylglutaryl coenzyme A reductase for cancer treatment” (J Med Chem, 2013).

Assay [1] deals with T1, 3-hydroxy-3-methylglutaryl-coenzyme A reductase (Homo sapiens, UniProt P04035).
T1 sequence (P04035 whole entry): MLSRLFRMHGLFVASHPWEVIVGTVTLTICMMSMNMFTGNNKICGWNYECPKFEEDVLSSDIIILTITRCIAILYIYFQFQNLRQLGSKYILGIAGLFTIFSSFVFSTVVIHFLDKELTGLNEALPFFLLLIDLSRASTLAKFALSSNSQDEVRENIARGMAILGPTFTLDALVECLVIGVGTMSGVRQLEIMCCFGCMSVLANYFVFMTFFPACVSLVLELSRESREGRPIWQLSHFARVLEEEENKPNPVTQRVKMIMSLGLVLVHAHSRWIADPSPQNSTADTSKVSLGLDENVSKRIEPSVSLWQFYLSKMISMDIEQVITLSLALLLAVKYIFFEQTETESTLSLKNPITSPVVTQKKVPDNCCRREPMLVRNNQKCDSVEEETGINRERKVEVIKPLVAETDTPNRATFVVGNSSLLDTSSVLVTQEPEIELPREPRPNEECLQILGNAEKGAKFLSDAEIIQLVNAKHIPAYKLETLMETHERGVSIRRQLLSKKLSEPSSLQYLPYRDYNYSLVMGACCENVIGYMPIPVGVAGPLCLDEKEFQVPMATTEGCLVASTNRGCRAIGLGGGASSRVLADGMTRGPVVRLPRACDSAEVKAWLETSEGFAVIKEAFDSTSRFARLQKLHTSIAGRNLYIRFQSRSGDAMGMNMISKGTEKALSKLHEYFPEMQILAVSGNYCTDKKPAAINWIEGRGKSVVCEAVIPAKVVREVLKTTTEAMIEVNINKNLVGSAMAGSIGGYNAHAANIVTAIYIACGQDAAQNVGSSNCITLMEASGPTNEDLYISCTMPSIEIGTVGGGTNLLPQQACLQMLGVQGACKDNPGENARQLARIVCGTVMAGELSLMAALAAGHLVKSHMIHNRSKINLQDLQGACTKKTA
Put plainly: Inhibition of recombinant HMG-CoA reductase (unknown origin) after 10 mins by spectrophotometric analysis.

Assay [2] addresses T2, Protein deacetylase HDAC6 (Homo sapiens, UniProt Q9UBN7).
T2 sequence (Q9UBN7 whole entry): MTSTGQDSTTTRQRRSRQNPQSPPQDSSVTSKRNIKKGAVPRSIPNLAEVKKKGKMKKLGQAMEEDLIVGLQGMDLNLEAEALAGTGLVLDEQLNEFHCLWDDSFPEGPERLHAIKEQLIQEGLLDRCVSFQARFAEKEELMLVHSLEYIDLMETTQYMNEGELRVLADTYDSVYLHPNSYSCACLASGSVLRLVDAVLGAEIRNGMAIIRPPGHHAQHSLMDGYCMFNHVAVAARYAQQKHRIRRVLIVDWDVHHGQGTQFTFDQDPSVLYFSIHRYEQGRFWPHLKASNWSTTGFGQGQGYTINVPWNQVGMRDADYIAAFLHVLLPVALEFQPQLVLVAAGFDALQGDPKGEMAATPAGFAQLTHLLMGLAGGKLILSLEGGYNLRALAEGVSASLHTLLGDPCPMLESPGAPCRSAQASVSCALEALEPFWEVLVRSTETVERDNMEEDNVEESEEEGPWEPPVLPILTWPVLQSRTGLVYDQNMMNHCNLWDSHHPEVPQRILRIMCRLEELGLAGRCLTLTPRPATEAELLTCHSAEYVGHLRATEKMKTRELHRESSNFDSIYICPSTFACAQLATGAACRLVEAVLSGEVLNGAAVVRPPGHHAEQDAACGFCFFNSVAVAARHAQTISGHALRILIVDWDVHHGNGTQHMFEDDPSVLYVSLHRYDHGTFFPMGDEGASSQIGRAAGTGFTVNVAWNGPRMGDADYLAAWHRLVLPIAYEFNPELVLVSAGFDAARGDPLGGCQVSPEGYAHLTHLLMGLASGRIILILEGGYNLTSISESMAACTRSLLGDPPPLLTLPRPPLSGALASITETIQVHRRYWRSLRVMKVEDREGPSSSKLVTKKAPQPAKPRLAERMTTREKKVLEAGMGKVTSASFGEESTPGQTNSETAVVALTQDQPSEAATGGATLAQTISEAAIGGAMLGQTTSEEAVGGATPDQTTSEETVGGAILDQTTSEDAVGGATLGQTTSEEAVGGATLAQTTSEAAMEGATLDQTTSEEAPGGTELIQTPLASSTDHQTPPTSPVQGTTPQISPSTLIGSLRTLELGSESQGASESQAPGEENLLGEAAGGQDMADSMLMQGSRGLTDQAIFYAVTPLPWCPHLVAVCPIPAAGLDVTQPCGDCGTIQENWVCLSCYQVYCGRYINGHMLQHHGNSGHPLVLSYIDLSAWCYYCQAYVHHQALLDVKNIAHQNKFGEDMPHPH
Description: Inhibition of recombinant HDAC6 (unknown origin) after 10 mins by fluorimetric analysis.

pIC50: −log10 of the molar value.

Usually pIC50 stands for the negative decadic logarithm of the IC50, by convention in mol/L. With `CC(C)c1c(C(=O)Nc2ccccc2)c(-c2ccccc2)c(-c2ccc(F)cc2)n1CC[C@@H](O)C[C@@H](O)CC(=O)O` [ATORVASTATIN], the pIC50 in assay [1] is 7.89; in assay [2], 4.84.
